One compound from patent US20170239239A1, “Method for Inducing a Sustained Immune Response” (Immune Therapeutics Inc., priority 2016, published 2017) can be followed below.

The subject of the assay is glioma cells: T98G and U87MG. The experiment in a line: Continuous 48 h exposure to naltrexone, glioma cells.

Turning to `O=C1CC[C@@]2(O)[C@H]3Cc4ccc(O)c5c4[C@@]2(CCN3CC2CC2)[C@H]1O5` [Immediate release naltrexone, naltrexone], the “effect on glioma cells” value is “no effect”.
